Results: patent US7655420B2, “Methods to increase or decrease bone density” (Celltech R & D, Inc., priority 2002, dated 2010)

Legend:
Conditions in all cases: 72 hrs
[1] = test system: noggin expression; assay: noggin expression in hMSC cells treated with BMPs and steroids (RT-PCR); assay type: cell-based, human
Protocol: (§1) In this example, the effect of growth factors and hormones on SOST expression in hMSC cells or primary human osteoblasts was observed using RT-PCR. Prior to measuring SOST expression, these cells were treated for 72 hrs with BMP-2, BMP-4, BMP-6, insulin-like growth factor-1 (IGF-1), parathyroid hormone (PTH), transforming growth factor-β (TGF-β), dexamethasone (DEX), retinoic acid (RA), and 1,25-dihydroxyvitamin D3 (vit D). As immature osteoblasts differentiate and become capable of mineralization, they express markers associated with the osteoblast phenotype (type I collagen and parathyroid hormone receptor (PTHr)). These markers were used to ascertain whether differentiation had occurred so that the influence of growth factors and hormones could be correlated with the stage differentiation as well as the level of SOST expression.
(§2) Human mesenchymal cells and primary human osteoblasts were plated in regular growth media containing 2% FCS at a density of 10,000 cells 1 cm^2. Test reagents (10^−7 M dexamethasone, 10^−6 M retinoic acid, 10 ng/ml TGF-β1, PTH (10^−8 M), 10 or 50 ng/ml IGF-1, 10^−7 M1,25-dihydroxyvitamin D3, and 50 to 300 ng/ml of bone morphogenetic proteins 2, 4 or 6) were added singly or in combination on the following day. Cultures were continued for 24 to 120 hrs after which the cells were harvested for RNA isolation. […]

[2] = test system: gremlin expression; assay: gremlin expression in hMSC cells treated with BMPs and steroids (RT-PCR); assay type: cell-based, human
Protocol: as §1, §2

[3] = test system: SOST expression; assay: SOST expression in hMSC cells and primary human osteoblasts treated with growth factors and hormones (RT-PCR); assay type: cell-based
Protocol: As immature osteoblasts differentiate and become capable of mineralization, they express markers associated with the osteoblast phenotype (type I collagen and parathyroid hormone receptor (PTHr)). These markers were used to ascertain whether differentiation had occurred so that the influence of growth factors and hormones could be correlated with the stage differentiation as well as the level of SOST expression.
Human mesenchymal cells and primary human osteoblasts were plated in regular growth media containing 2% FCS at a density of 10,000 cells 1 cm^2. Test reagents (10^−7 M dexamethasone, 10^−6 M retinoic acid, 10 ng/ml TGF-β1, PTH (10^−8 M), 10 or 50 ng/ml IGF-1, 10^−7 M1,25-dihydroxyvitamin D3, and 50 to 300 ng/ml of bone morphogenetic proteins 2, 4 or 6) were added singly or in combination on the following day.

B1: BMP-2: bone morphogenetic protein 2, purchased from R & D Systems (protein, UniProt P12643 283-396, looked up)
Bone morphogenetic protein 2: QAKHKQRKRLKSSCKRHPLYVDFSDVGWNDWIVAPPGYHAFYCHGECPFPLADHLNSTNHAIVQTLVNSVNSKIPKACCVPTELSAISMLYLDENEKVVLKNYQDMVVEGCGCR
- noggin expression, factor alone [1]: up-regulated
- gremlin expression, factor alone [2]: only modestly increased
- SOST expression, factor alone [3]: up-regulated
